{"source": "patent US6348445B1", "about": "“Biologically active peptides with reduced toxicity in animals and a method for preparing same” (priority 1992, dated 2002)", "key": {"[1]": {"test": "MTD and LD50, single intravenous administration", "type": "in vivo, mice", "conditions": "for No. of Survivors Day 1 / No. of Survivors Day 2 / No. of Survivors Day 3 / No. of Survivors Day 4 / No. of Survivors Day 5 / No. of Survivors Day 6 / No. of Survivors Day 7 / No. of Survivors Day 8: 4 injected", "method": "Determinations of a maximal tolerated dose (MTD) of a single intravenous (i.v.) administration or intraperitoneal (i.p.) administration of MSI-344 or MSI-1857 in 100 CD-1®BR mice were done. The MTD of a single intravenous (i.v.) administration was 10 mg/kg for MSI-344 and 60 mg/kg for MSI-1857. The MTD of a single intraperitoneal (i.p.) administration was less than 20 mg/kg for MSI-344 and between 50 and 100 mg/kg for MSI-1857.\nTo determine estimates of MTDs and LD50s of MSI-344 and MSI-1857 administered intravenously or intraperitoneally as a single bolus in mice.\nA 5 mg/mL solution of MSI-344 was made in saline (0.9% sodium chloride injection USP, Abbott, North Chicago, Ill.) corrected for peptide content. Solutions of MSI-344 at concentrations of 4, 3, 2, 1.5, 1, and 0.5 mg/mL were made by diluting the 5 mg/mL solution using saline as diluent. (Errors were made in solution preparation of the 4, 3, and 2 mg/mL solutions and results from groups with animals doses with these solutions, i.e. groups 12, 13, and 14, were eliminated from study analysis). A 20 mg/mL solution of MSI-1857 was made in saline. Solutions of MSI-1857 at concentrations of 15, 10, 8, 6, and 5 mg/mL were made by diluting the 20 mg/mL solution using saline as diluent.\nAnother 5 mg/mL solution of MSI-344 was made in saline corrected for peptide content. Solutions of 4, 3 and 2 mg/mL were made by diluting the 5 mg/mL solution using saline as diluent. A 15 mg/mL solution of MSI-1857 in saline was made corrected for peptide content. A 10 mg/mL solution was made by diluting the 15 mg/mL solution with saline.\nMice (four mice per dose group) were intravenously or intraperitoneally administered a single bolus of MSI-344 or MSI-1857 using an injection volume of 10 mL/kg of the appropriate solution concentration. If the first two mice in a group died immediately (within 10 secs) after administration of a dose then no other mice injected with this dose of this compound (for ethical reasons). Survival was monitored daily for at least eight days post-administration. Study designs are presented in Tables IX and X. Toxicity Study # 262 was a supplement to Toxicity Study #261."}, "[2]": {"tested_on": "P. aeruginosa strain ATCC 27853", "type": "cell-based", "description": "Table I, which follows, indicates the Minimal Inhibitory Concentration (MIC) in […] of various peptides against S.aureus strain ATCC 25923(S), P. aeruginosa strain ATCC 27853(P), E. coli ATCC strain 25922(E), and C. 4albicans (CA). […] The peptides are unsubstituted at the N-terminal; substituted with an acetyl group at the N-terminal, as indicated by Ac-; substituted with an octanoyl group at the N-terminal, as indicated by Oct-; substituted with spinogosine, as indicated by Sph-; substituted with a succinyl group, as indicated by Suc-; substituted with a hexanoyl group, as indicated by Hex-; substituted with a heptanoyl group, as indicated by Hep-; substituted with a valeryl group, as indicated by Val-; substituted with a myristryl group, as indicated by Myr-; or substituted with an ibuprofyl group, as indicated by Ibu-; […]\nThe stock peptide solution was diluted in serial dilutions (1:2) down the wells of a microtiter plate so that the final concentrations of peptides in the wells were 0.25, 0.50, 1, 2, 4, 8, 16, 32, 64, 128 and 256 μg/ml. […] The plates were incubated for 16-20 hours at 37° C., and the minimal inhibitory concentration (MIC) for each peptide was determined. […]\nThe in vitro anti-microbial activities of the methane sulfonate derivatives were determined according to the methods described in Examples 1 and 2. […]"}, "[3]": {"conditions": "Tox Study #261 group 6, 100 mg/kg IV"}, "[4]": {"conditions": "Tox Study #261 group 7, 80 mg/kg IV"}, "[5]": {"conditions": "Tox Study #261 group 8, 60 mg/kg IV"}, "[6]": {"conditions": "Tox Study #261 group 9, 50 mg/kg IV"}}}
{"smiles": "CC[C@H](C)[C@H](NC(=O)CNCS(=O)(=O)O)C(=O)NCC(=O)N[C@@H](CCCCNCS(=O)(=O)O)C(=O)N[C@@H](Cc1ccccc1)C(=O)N[C@@H](CC(C)C)C(=O)N[C@@H](CCCCNCS(=O)(=O)O)C(=O)N[C@@H](CCCCNCS(=O)(=O)O)C(=O)N[C@@H](C)C(=O)N[C@@H](CCCCNCS(=O)(=O)O)C(=O)N[C@@H](CCCCNCS(=O)(=O)O)C(=O)N[C@@H](Cc1ccccc1)C(=O)NCC(=O)N[C@@H](CCCCNCS(=O)(=O)O)C(=O)N[C@@H](C)C(=O)N[C@@H](Cc1ccccc1)C(=O)N[C@H](C(=O)N[C@@H](CCCCNCS(=O)(=O)O)C(=O)N[C@H](C(=O)N[C@@H](CC(C)C)C(=O)N[C@@H](CCCCNCS(=O)(=O)O)C(=O)N[C@@H](CCCCNCS(=O)(=O)O)C(=O)O)[C@@H](C)CC)C(C)C", "note": "[MSI-1857]", "values": [{"measurement": "No. of Survivors Day 1", "setting": "[1]; [3]", "result": 0}, {"measurement": "No. of Survivors Day 2", "setting": "[1]; [3]", "result": 0}, {"measurement": "No. of Survivors Day 3", "setting": "[1]; [3]", "result": 0}, {"measurement": "No. of Survivors Day 4", "setting": "[1]; [3]", "result": 0}, {"measurement": "No. of Survivors Day 5", "setting": "[1]; [3]", "result": 0}, {"measurement": "No. of Survivors Day 6", "setting": "[1]; [3]", "result": 0}, {"measurement": "No. of Survivors Day 7", "setting": "[1]; [3]", "result": 0}, {"measurement": "No. of Survivors Day 8", "setting": "[1]; [3]", "result": 0}, {"measurement": "No. of Survivors Day 1", "setting": "[1]; [4]", "result": 1}, {"measurement": "No. of Survivors Day 2", "setting": "[1]; [4]", "result": 1}, {"measurement": "No. of Survivors Day 3", "setting": "[1]; [4]", "result": 1}, {"measurement": "No. of Survivors Day 4", "setting": "[1]; [4]", "result": 1}, {"measurement": "No. of Survivors Day 5", "setting": "[1]; [4]", "result": 1}, {"measurement": "No. of Survivors Day 6", "setting": "[1]; [4]", "result": 1}, {"measurement": "No. of Survivors Day 7", "setting": "[1]; [4]", "result": 1}, {"measurement": "No. of Survivors Day 8", "setting": "[1]; [4]", "result": 1}, {"measurement": "No. of Survivors Day 1", "setting": "[1]; [5]", "result": 4}, {"measurement": "No. of Survivors Day 2", "setting": "[1]; [5]", "result": 4}, {"measurement": "No. of Survivors Day 3", "setting": "[1]; [5]", "result": 4}, {"measurement": "No. of Survivors Day 4", "setting": "[1]; [5]", "result": 4}, {"measurement": "No. of Survivors Day 5", "setting": "[1]; [5]", "result": 4}, {"measurement": "No. of Survivors Day 6", "setting": "[1]; [5]", "result": 4}, {"measurement": "No. of Survivors Day 7", "setting": "[1]; [5]", "result": 4}, {"measurement": "No. of Survivors Day 8", "setting": "[1]; [5]", "result": 4}, {"measurement": "No. of Survivors Day 1", "setting": "[1]; [6]", "result": 4}, {"measurement": "No. of Survivors Day 2", "setting": "[1]; [6]", "result": 4}, {"measurement": "No. of Survivors Day 3", "setting": "[1]; [6]", "result": 4}, {"measurement": "No. of Survivors Day 4", "setting": "[1]; [6]", "result": 4}, {"measurement": "No. of Survivors Day 5", "setting": "[1]; [6]", "result": 4}, {"measurement": "No. of Survivors Day 6", "setting": "[1]; [6]", "result": 4}, {"measurement": "No. of Survivors Day 7", "setting": "[1]; [6]", "result": 4}, {"measurement": "No. of Survivors Day 8", "setting": "[1]; [6]", "result": 4}, {"measurement": "LD50", "setting": "[1]; mouse, in vivo, iv, CD-1 mice, estimated from dose response curves", "result": 73, "unit": "mg/kg"}, {"measurement": "MTD", "setting": "[1]; mouse, in vivo, iv, CD-1 mice, read-out: MTD of a single intravenous (i.v.) administration", "result": 60, "unit": "mg/kg"}, {"measurement": "fold increase in safety compared to MSI-344", "setting": "[1]; single administration i.v. or i.p.", "result": "approximately 5 fold"}, {"measurement": "MIC P. aeruginosa ATCC 27853", "setting": "[2]", "result": 256, "unit": "µg/mL"}]}
